Results: US20130252945A1, “AMORPHOUS BIOINORGANIC IONIC LIQUID COMPOSITIONS COMPRISING PHARMACEUTICALS” (priority 2012, published 2013)

Test: Dissolution in stirred cuvette of water monitored by UV-Vis absorption at 314 nm
Assay type: physicochemical
Conditions: 1 mM in stirred water at pH 6.5

## CNC(=C[N+](=O)[O-])NCCSCc1ccc(CN(C)C)o1.Cl [ranitidine-HCl, Ranitidine hydrochloride, reference compound]
  stirring time until maximal absorption at 314 nm: 10 min
